{
  "source": "ChEMBL document CHEMBL1828590",
  "about": "(J Med Chem, 2011)",
  "molecular_target": "T1, Histone deacetylase 8 (Homo sapiens, UniProt Q9BY41)",
  "T1 sequence (Q9BY41 whole entry)": "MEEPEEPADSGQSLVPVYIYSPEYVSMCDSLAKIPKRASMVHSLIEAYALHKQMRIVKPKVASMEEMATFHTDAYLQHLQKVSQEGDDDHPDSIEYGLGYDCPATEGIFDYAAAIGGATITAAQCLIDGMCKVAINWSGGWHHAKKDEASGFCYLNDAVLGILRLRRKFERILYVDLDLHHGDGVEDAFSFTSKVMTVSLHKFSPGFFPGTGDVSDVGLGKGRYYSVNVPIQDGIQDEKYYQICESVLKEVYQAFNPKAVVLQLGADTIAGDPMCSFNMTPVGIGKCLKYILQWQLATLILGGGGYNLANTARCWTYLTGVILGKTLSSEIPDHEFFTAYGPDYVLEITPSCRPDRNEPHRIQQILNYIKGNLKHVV",
  "data": [
    {"smiles": "O=C(CCCCCCC(=O)Nc1ccccc1)NO", "note": "[VORINOSTAT]", "values": [
      {"measurement": "Ki", "result": 173, "unit": "nM"}
    ]}
  ]
}
